# Assay results from patent US20250019374A1, “PROTEIN TYROSINE PHOSPHATASE INHIBITORS AND METHODS OF USE THEREOF” (Calico Life Sciences LLC, priority 2021, published 2025).
# Tested on: IFNγ-induced STAT1 phosphorylation (pSTAT1) in B16F10 cells
# Experiment: B16F10 Phospho-STAT1 HTRF proximal pharmacodynamic (PD) assay
# Conditions: read-out: pSTAT1 EC50, Table 3, chromane comparator
# Description: Example III-3: B16F10 (Murine Melanoma Cells) Phospho-STAT1 HTRF Proximal Pharmacodynamic (PD) Assay
# B16F10 cells were grown and maintained in high glucose DMEM (Gibco, Catalog^#11965-092, Dun Laoghaire Co Dublin) supplemented with 10% fetal bovine serum (Gibco, Catalog^#10082-139, Dun Laoghaire Co Dublin). The cells were pelleted and resuspended in high glucose DMEM without phenol red (Gibco, Catalog^#11054-020, Dun Laoghaire Co Dublin), supplemented with 10% fetal bovine serum and plated in a 384 well Corning plate (product^#3765, Corning, NY) at 11,000 cells per well in a volume of 20 μL. The cells were dosed with the compounds of interest using an Echo Liquid Handler (Beckman Coulter, Brea, CA) at 50 μM top dose with 3-fold dilutions down to 0.002679 μM for a 10-point dose response. The plate was incubated for 3 hours at 37° C. and subsequently treated with recombinant mouse IFNγ (R&D Systems, Catalog^#485-MI, Minneapolis, MN; 100 nM final concentration) for 10 minutes at 37° C. to induce STAT1 phosphorylation followed by 3.3 μM staurosporine treatment for 1 hour at 37° C. to terminate phosphorylation. […] The plate was incubated for 3 hours at room temperature and read on an EnVision® (Perkin Elmer) plate reader with laser excitation at 335 nm and emission at 665 nm. […]
row,Structure (SMILES),EC50
1,O=C1CN(c2c(O)cc3c(c2F)C[C@H](NCCCC(F)F)CO3)S(=O)(=O)N1,3.6 µM
2,O=C1CN(c2c(O)cc3c(c2F)C[C@H](NCCCOCC(F)F)CO3)S(=O)(=O)N1,> 50 µM
